Experimental findings from ChEMBL document CHEMBL4373696, “Probing the Existence of a Metastable Binding Site at the β2-Adrenergic Receptor with Homobivalent Bitopic Ligands” (J Med Chem, 2019) are described below.

Sequences of proteins named here, by UniProt entry; tags and fusion partners are left off.
UniProt P08588, whole entry: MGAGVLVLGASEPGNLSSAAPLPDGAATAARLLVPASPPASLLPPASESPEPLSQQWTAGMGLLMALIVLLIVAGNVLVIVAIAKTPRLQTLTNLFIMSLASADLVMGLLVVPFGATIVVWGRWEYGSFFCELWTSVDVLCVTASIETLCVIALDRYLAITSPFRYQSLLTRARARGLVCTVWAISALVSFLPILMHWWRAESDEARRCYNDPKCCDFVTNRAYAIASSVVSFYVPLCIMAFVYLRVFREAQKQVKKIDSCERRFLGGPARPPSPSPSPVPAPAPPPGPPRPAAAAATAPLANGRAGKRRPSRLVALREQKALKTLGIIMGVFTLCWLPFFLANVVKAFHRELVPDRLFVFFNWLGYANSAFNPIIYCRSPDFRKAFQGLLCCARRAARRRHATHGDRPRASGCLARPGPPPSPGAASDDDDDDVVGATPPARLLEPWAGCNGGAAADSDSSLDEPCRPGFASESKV

pIC50, pKi: −log10 of the molar value.

For orientation: pIC50 means the IC50 on a negative log10 scale, so that one unit is a factor of ten. The term pKi denotes the Ki on a negative log10 scale, so that one unit is a factor of ten.

The target of test [1] is T1, Beta-1 adrenergic receptor (Homo sapiens, UniProt P08588). The test is described as follows: Antagonist activity at beta1 adrenergic receptor (unknown origin) stably expressed in HEK293 cell membranes assessed as inhibition of isoproterenol-induced cAMP production preincubated for 15 mins followed by isoproterenol addition and measured after 30 mins by TR-FRET assay. It is filed as cell-based. In a few lines: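 Membranes from HEK293 cells stably overexpressing β1AR; ligand's blockade of isoproterenol-stimulated cAMP production measured; pIC50 as mean ± SEM from 3-8 independent experiments run in duplicate.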
For orientation: Changes in cAMP serve as a functional read-out for many G protein-coupled receptors.

Test [2] deals with T1, Beta-1 adrenergic receptor. The test is described as follows: Displacement of [3H]DHA from beta1 adrenergic receptor (unknown origin) stably expressed in HEK293 cell membranes measured after 90 mins by scintillation counting analysis. In general terms: Loss of bound radioactivity is the signal in a displacement assay; it reports binding, not function.

As to `C=CCc1ccccc1OCC(O)CNC(C)C` (racemic) [ALPRENOLOL], the pIC50 in test [1] is 7.86. Consider `C=CCc1ccccc1OC[C@H](O)CNC(C)C`, for which the pKi in test [2] is 7.19. Also, the negative-log IC50 (pIC50) in test [1] was 6.36.

`C=CCc1ccccc1OC[C@@H](O)CNC(C)C` gave a pKi in test [2] of 8.84.
